Results reported in ChEMBL document CHEMBL4732024, “Second-generation tricyclic pyrimido-pyrrolo-oxazine mTOR inhibitor with predicted blood-brain barrier permeability” (RSC Med Chem, 2021).

The chains behind the UniProt entries cited, without tags or fusion partners.
UniProt P08183, whole entry: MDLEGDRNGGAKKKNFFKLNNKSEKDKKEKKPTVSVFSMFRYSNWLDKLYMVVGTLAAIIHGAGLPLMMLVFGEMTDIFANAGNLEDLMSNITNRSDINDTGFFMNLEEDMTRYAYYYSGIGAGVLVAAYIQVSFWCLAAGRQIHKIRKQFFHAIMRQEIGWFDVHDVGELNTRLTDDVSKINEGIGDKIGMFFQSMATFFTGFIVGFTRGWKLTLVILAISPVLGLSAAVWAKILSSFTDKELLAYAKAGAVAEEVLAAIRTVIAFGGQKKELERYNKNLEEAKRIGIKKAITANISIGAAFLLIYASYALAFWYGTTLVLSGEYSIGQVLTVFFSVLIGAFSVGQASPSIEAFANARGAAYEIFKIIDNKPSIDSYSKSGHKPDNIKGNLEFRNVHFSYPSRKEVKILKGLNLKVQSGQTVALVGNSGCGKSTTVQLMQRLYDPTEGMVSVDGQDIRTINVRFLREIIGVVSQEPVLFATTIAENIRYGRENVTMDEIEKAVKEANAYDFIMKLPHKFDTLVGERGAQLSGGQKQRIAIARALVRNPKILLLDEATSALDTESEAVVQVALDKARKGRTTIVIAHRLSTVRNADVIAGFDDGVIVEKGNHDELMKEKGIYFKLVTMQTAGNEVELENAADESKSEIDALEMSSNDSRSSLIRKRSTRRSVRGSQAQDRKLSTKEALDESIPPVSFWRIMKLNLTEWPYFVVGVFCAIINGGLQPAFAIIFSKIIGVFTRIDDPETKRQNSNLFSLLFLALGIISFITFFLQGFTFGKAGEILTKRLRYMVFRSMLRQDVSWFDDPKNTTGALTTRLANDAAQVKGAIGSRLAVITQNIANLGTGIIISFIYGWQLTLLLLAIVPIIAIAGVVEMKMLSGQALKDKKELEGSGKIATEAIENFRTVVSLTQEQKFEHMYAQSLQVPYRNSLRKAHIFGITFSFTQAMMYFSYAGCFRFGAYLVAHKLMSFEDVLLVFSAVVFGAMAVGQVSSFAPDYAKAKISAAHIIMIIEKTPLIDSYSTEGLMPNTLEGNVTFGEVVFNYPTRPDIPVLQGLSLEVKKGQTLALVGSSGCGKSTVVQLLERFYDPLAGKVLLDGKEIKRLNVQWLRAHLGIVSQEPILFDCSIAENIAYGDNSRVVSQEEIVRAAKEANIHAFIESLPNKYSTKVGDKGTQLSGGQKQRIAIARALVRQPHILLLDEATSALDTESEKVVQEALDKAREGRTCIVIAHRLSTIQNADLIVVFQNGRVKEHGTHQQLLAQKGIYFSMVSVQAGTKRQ

Target: MDR1 (P-gp, ABCB1) (Homo sapiens, UniProt P08183)
Test: Substrate activity at human MDR1 expressed in MDCK cells assessed as efflux ratio of apparent permeability across basolateral to apical side over apical to basolateral side at 1 uM by UPLS-MS/MS analysis
Assay type: ADME, cell-based
How it was run: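 TransWell monolayers of CRISPR-Cas9 MDCK cells expressing human MDR1 without endogenous canine MDR1, compared against a control line expressing neither ortholog (MDCK^cMDR1-ko); efflux ratio = Papp basolateral-apical / Papp apical-basolateral; unpaired t-test, p < 0.05.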

C[C@@H]1COCCN1c1nc(-c2cnc(N)c(C(F)(F)F)c2)nc2c1C[C@@H]1COCCN21
efflux ratio at 1 µM: 1
